Test results published in ChEMBL document CHEMBL5380877, “Azulene as a biphenyl mimetic in orexin/hypocretin receptor agonists” (Bioorg Med Chem, 2023).
Activity calls are given as the source filed them. The rule behind the calls is not given here.

Chains of the proteins cited; added tags and fusions are not shown.
UniProt O43613, whole entry: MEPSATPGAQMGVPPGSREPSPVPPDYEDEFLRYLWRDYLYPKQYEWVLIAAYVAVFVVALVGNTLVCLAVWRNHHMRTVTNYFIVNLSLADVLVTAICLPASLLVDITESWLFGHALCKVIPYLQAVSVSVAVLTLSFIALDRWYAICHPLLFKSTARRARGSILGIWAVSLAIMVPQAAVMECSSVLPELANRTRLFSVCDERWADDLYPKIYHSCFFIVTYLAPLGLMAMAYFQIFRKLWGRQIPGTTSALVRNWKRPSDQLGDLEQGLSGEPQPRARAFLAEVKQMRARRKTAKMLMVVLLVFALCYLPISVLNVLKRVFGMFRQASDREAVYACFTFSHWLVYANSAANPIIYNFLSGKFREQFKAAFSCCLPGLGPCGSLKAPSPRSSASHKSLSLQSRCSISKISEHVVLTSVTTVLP

How the values were obtained:
[1] = molecular target: T1, Orexin/Hypocretin receptor type 1 (Homo sapiens, UniProt O43613); assay: Agonist activity at human OX1 receptor expressed in CHO-K1 cells assessed as increase in intracellular Ca2+ level at 10 uM incubated for 24 hrs by FLIPR calcium 4 assay relative to orexin-A; format: functional, cell-based
[2] = molecular target: T1, Orexin/Hypocretin receptor type 1; assay: Agonist activity at human OX1 receptor expressed in CHO cells assessed as increase in orexin-A induced Ca2+ accumulation level at 10 uM incubated for 24 hrs by FLIPR calcium 4 assay; format: functional, cell-based; settings: filed as agonist

Row | Emax [1] [%] | Activity [2] | Emax ([1]; filed as agonist) [%] | SMILES
1 | 11 | – | – | Cc1cccc(C(=O)NCCNc2cccc(NS(=O)(=O)c3cc(C(=O)N(C)C)c4ccc(C(=O)N(C)C)ccc3-4)c2)c1
2 | – | Active | 80 | Cc1ccc2c(C(=O)N(C)C)cc(S(=O)(=O)Nc3cccc(NCCNC(=O)c4cccc(C)c4)c3)c-2cc1
